By UniProt entry, the sequences of proteins in these tests, tags left out.
UniProt O00408, whole entry: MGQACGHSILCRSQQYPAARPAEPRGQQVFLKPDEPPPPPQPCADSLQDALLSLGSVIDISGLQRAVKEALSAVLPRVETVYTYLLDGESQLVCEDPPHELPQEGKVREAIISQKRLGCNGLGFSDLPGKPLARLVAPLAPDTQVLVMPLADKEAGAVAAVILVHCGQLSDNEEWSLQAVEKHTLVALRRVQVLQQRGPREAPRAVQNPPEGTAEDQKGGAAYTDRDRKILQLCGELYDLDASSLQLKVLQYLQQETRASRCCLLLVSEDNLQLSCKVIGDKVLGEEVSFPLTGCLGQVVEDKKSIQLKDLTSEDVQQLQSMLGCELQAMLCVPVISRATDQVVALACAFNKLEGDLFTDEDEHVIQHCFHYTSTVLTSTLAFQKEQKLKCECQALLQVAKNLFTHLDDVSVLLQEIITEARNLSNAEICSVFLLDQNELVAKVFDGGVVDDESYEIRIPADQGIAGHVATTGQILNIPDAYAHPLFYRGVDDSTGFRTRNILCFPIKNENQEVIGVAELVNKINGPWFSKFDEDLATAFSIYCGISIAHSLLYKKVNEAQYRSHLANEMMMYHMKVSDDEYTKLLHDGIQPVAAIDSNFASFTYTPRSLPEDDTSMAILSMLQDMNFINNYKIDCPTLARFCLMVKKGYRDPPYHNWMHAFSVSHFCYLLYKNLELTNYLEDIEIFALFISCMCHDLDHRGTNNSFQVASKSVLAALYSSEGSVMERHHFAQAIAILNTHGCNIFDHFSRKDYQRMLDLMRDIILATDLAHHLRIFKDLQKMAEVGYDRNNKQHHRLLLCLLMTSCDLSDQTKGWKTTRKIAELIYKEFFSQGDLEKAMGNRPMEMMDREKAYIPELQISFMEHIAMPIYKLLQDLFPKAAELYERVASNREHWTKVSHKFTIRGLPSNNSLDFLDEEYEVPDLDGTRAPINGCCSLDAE

In ChEMBL document CHEMBL1145127 (J Med Chem, 2003):

Biological target: cGMP-dependent 3',5'-cyclic phosphodiesterase (Homo sapiens, UniProt O00408)
Assay: Inhibition of Human recombinant PDE2 (Phosphodiesterase 2)

IC50: > 10 µM
SMILES: CCCc1nn(C)c2c(=O)[nH]c(-c3cc(S(=O)(=O)N4CCN(C)CC4)ccc3OCC)nc12
